Where only a bound is given, the exact number is not on record here.

For test [1], the species on record is Homo sapiens. Nature of the test: Selectivity ratio of IC50 for HER4 (unknown origin) to IC50 for BTK (unknown origin).
Test [2] is filed under the species Homo sapiens. Nature of the test: Selectivity ratio of IC50 for human recombinant FYN to IC50 for BTK (unknown origin).
The species named for test [3] is Homo sapiens. Nature of the test: Selectivity ratio of IC50 for TEC (unknown origin) to IC50 for BTK (unknown origin).
Test [4] is filed under the species Homo sapiens. Nature of the test: Selectivity ratio of IC50 for human recombinant EGFR to IC50 for BTK (unknown origin).
For test [5], the species on record is Homo sapiens. Nature of the test: Selectivity ratio of IC50 for human recombinant FGR to IC50 for BTK (unknown origin).
For test [6], the species on record is Homo sapiens. Nature of the test: Selectivity ratio of IC50 for human recombinant TXK to IC50 for BTK (unknown origin).
Test [7] is filed under the species Homo sapiens. Nature of the test: Selectivity ratio of IC50 for BMX (unknown origin) to IC50 for BTK (unknown origin).
For test [8], the species on record is Homo sapiens. Nature of the test: Selectivity ratio of IC50 for HCK (unknown origin) to IC50 for BTK (unknown origin).
The species named for test [9] is Homo sapiens. Nature of the test: Selectivity ratio of IC50 for BLK (unknown origin) to IC50 for BTK (unknown origin).
For test [10], the species on record is Homo sapiens. Nature of the test: Selectivity ratio of IC50 for human recombinant SRC to IC50 for BTK (unknown origin).
Test [11] is filed under the species Homo sapiens. Nature of the test: Selectivity ratio of human recombinant YES to IC50 for BTK (unknown origin).
Test [12] is filed under the species Homo sapiens. Nature of the test: Selectivity ratio of IC50 for human recombinant JAK3 to IC50 for BTK (unknown origin).
The species named for test [13] is Homo sapiens. Nature of the test: Selectivity ratio of IC50 for human recombinant LYN to IC50 for BTK (unknown origin).
For test [14], the species on record is Homo sapiens. Nature of the test: Selectivity ratio of IC50 for human recombinant HER2 to IC50 for BTK (unknown origin).
The species named for test [15] is Homo sapiens. Nature of the test: Selectivity ratio of IC50 for human recombinant ITK to IC50 for BTK (unknown origin).
The species entered for test [16] is Homo sapiens. Nature of the test: Selectivity ratio of human recombinant LCK to IC50 for BTK (unknown origin).

With `Nc1ncnc2c1c(-c1ccc(Oc3ccccc3)cc1)cn2C[C@H]1CCCN1C[C@@H]1CO1`, the Ratio IC50 in the test listed under Homo sapiens [1] is 128; in the test listed under Homo sapiens [2], 77; in the test listed under Homo sapiens [3] it was 15; in the test filed under Homo sapiens [4] it was more than 333; in the test filed under Homo sapiens [5], 9; in the test listed under Homo sapiens [6], 119. For the same compound, the Ratio IC50 is 28 in the test listed under Homo sapiens [7]; 11 in the test filed under Homo sapiens [8]; 3 in the test listed under Homo sapiens [9]; 41 in the test listed under Homo sapiens [10]; 29 in the test listed under Homo sapiens [11]; more than 333 in the test listed under Homo sapiens [12]. In addition, the Ratio IC50 in the test listed under Homo sapiens [13] was 3; in the test filed under Homo sapiens [14], more than 333; in the test filed under Homo sapiens [15], more than 333; in the test filed under Homo sapiens [16], 10.
